Experimental findings from PubChem BioAssay AID540299 (ICCB-Longwood Screening Facility, Harvard Medical School, 2011) are described below.

By UniProt entry, the sequences of proteins in these tests, tags left out.
UniProt P9WNP5, whole entry: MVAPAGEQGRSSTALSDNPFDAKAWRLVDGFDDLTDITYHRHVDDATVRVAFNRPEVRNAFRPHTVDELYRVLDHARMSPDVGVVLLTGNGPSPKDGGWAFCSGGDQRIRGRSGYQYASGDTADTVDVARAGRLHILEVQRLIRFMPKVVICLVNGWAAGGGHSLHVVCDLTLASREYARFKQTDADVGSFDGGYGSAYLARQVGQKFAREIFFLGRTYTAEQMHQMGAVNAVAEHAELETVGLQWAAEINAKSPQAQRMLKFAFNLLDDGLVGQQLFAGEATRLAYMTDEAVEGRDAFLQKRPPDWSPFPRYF

The entries are a selection whose mix differs from that of the whole data set. Some tests of the compounds listed are not included; inactive here does not mean inactive elsewhere. Activity calls are given as the source filed them. No stated cut-off is given here; in the data, active means inhibition above about 21% (passing the limit was not always enough); inactive means the rest.

The target in the assay is 1,4-dihydroxy-2-naphthoyl-CoA synthase (Mycobacterium tuberculosis (strain ATCC 25618 / H37Rv)) (UniProt P9WNP5). Put plainly: M. tuberculosis MenB inhibitors, primary screen, biochemical, absorbance (AID 540299). The settings on record: MenB enzyme assay, absorbance read-out; hits give high values; concentration not given here.
As to `CN1C2CCC1CC(OC(=O)C(O)(c1ccccc1)c1ccccc1)C2` (stereo not drawn), the inhibition – broadly, the drop in the measured response relative to a control, in per cent – was inactive: 25.6%.
As for `O=C(NCC1(N2CCCCC2)CCCCC1)c1ccc2c(c1)OCCO2`, the inhibition is inactive: -3.66%.
Turning to `O=C(OC1CN2CCC1CC2)C(CO)(c1ccccc1)c1ccccc1` (stereo not drawn), the inhibition was inactive: -17.9%.
The same measure for `N#CC(C#N)=Cc1ccccc1`: inactive: -5.65%.
Consider `CN(C)C1(CNC(=O)c2ccncc2)CCCCC1`, for which the inhibition was inactive: -8.66%.
Consider `COc1ccc(OC)c(C=C(C#N)C#N)c1`, for which the inhibition is inactive: -29.6%.
Turning to `CN(C)c1ccc(C(=O)NCC2(N(C)C)CCCCC2)cc1`, the inhibition was inactive: -25.8%.
For the compound `O=C(NCC1(N2CCOCC2)CCCCC1)c1cnc(Cl)c(Cl)c1`, the inhibition is inactive: -31.8%.
